Results published in publication PMC12163822, “Synthesis and Pharmacological Characterization of a Novel Cannabinoid Receptor 1 Antagonist” (ACS Omega, 2025).

By UniProt entry, the sequences of proteins in these tests, tags left out.
UniProt P47746, whole entry: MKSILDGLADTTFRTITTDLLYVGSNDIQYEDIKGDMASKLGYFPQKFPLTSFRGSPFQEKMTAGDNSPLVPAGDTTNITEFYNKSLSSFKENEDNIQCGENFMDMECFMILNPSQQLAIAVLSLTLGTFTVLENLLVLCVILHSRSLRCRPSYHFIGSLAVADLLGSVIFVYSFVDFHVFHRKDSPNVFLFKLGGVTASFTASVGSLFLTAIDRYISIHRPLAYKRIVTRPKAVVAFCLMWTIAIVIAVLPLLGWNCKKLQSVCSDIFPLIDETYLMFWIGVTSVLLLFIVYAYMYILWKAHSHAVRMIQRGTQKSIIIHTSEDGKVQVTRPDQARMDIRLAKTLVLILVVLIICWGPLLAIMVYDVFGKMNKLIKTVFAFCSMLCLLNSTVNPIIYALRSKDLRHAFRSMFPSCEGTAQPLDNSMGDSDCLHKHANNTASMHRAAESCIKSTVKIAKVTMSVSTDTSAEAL
UniProt P20272, whole entry: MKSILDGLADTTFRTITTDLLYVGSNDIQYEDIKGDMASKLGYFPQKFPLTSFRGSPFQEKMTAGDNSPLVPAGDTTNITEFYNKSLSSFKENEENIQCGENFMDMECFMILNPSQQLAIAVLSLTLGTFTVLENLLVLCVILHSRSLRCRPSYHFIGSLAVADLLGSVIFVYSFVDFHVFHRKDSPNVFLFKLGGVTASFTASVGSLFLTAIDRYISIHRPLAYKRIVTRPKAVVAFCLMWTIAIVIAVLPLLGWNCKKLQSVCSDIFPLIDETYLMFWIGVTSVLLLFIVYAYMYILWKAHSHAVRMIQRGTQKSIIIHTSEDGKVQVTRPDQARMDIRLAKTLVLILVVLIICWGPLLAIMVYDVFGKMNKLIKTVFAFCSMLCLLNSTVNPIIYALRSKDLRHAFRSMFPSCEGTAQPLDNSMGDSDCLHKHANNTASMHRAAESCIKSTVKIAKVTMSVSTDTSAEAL

Key:
[1] = target: T1, CB1 receptor (Mus musculus, UniProt P47746); experiment: [3H]CP55,940 receptor autoradiography in mouse brain slices; format: binding, Swiss mice; settings: 3 nM [3H]CP55,940 in the presence of compound 10 µM
T1 construct: fresh frozen sections from brain samples from wild-type; from tissue; host or cells: Swiss mouse brain sections
Experimental: (§1) All brain sections were air-dried for 30 min and later immersed in Coplin jars for preincubation in a buffer containing 50 mM Tris–HCl and 1% of BSA (pH 7.4) for 30 min at room temperature. The objective of this preincubation was to remove endogenous ligands. […] Following incubation, tissue slices were washed with an ice-cold preincubation buffer, dipped in distilled water, and dried overnight. To generate autoradiograms, dry sections were placed in hermetically closed cassettes and exposed to β-radiation-sensitive films for 21 days at 4 °C. To calibrate the optical densities to fmol/mg tissue equivalent, [^3H]-microscales were exposed to the films. To quantify the calibrated films after scanning, Fiji software (Bethesda, […], USA) was used.

[2] = target: CB1 receptor (Rattus norvegicus, UniProt P20272); experiment: [3H]CP55,940 receptor autoradiography in rat brain slices; format: binding, Sprague-Dawley rat; set-up: fresh frozen sections from brain samples from wild-type; from tissue; host or cells: Sprague-Dawley rat brain sections; settings: 3 nM [3H]CP55,940 in the presence of compound 10 µM
Experimental: as §1

[3] = nucleus basalis magnocellularis

Cc1c(C(=O)NN2CCCCC2)nn(-c2ccc(Cl)cc2Cl)c1-c1ccc(Cl)cc1.Cl [SR141716A, 5-(4-Chlorophenyl)-1-(2,4-dichlorophenyl)-4-methyl-N-1-piperidinyl-1H-pyrazole-3-carboxamide hydrochloride, reference compound]
[3H]CP55,940 binding ([1]; amygdala): 62 ± 37 fmol/mg t.e. | [3H]CP55,940 binding ([1]; cerebellum (gray matter)): 118 ± 22 fmol/mg t.e. | [3H]CP55,940 binding ([1]; cortex): 65 ± 26 fmol/mg t.e. | [3H]CP55,940 binding ([1]; globus pallidus): 75 ± 31 fmol/mg t.e. | [3H]CP55,940 binding ([1]; hippocampus dorsal): 69 ± 29 fmol/mg t.e. | [3H]CP55,940 binding [1, 3]: 82 ± 31 fmol/mg t.e. | [3H]CP55,940 binding ([1]; striatum): 73 ± 13 fmol/mg t.e. | [3H]CP55,940 binding ([1]; substantia nigra): 106 ± 118 fmol/mg t.e. | [3H]CP55,940 binding ([2]; amygdala): 79 ± 18 fmol/mg t.e. | [3H]CP55,940 binding ([2]; cerebellum (gray matter)): 72 ± 23 fmol/mg t.e. | [3H]CP55,940 binding ([2]; cortex): 66 ± 14 fmol/mg t.e. | [3H]CP55,940 binding ([2]; globus pallidus): 77 ± 15 fmol/mg t.e. | [3H]CP55,940 binding ([2]; hippocampus dorsal): 62 ± 10 fmol/mg t.e. | [3H]CP55,940 binding [2, 3]: 80 ± 11 fmol/mg t.e. | [3H]CP55,940 binding ([2]; striatum): 79 ± 25 fmol/mg t.e. | [3H]CP55,940 binding ([2]; substantia nigra): 70 ± 14 fmol/mg t.e.
